Measurements from the OPERA property sets (Mansouri et al. 2018).

Details: experimental values compiled from the literature

SMILES	logP
CCCN(C)CCO	0.65
[N-]=[N+]=NC=Cc1ccc([N+](=O)[O-])o1	2.06
CCN(C)CCO	0.08
CC(CCC(C)O[N+](=O)[O-])O[N+](=O)[O-] (stereo not given)	3.09
O=[N+]([O-])OC1CCCC(O[N+](=O)[O-])C1 (stereo not given)	2.89
O=[N+]([O-])OC1CCCCC1O[N+](=O)[O-] (stereo not given)	2.62
CC(CC(C)O[N+](=O)[O-])O[N+](=O)[O-] (stereo not given)	2.75
O=[N+]([O-])OCCCO[N+](=O)[O-]	1.68
CCC(CO[N+](=O)[O-])O[N+](=O)[O-] (stereo not given)	2.36
CC(CCO[N+](=O)[O-])O[N+](=O)[O-] (stereo not given)	2.15
O=[N+]([O-])OCCCCCO[N+](=O)[O-]	2.64
CCCCC(CO[N+](=O)[O-])O[N+](=O)[O-] (stereo not given)	3.51
CC(CCCO[N+](=O)[O-])O[N+](=O)[O-] (stereo not given)	2.88
O=[N+]([O-])c1cccc(O)c1[N+](=O)[O-]	2.08
CC(CCCCO[N+](=O)[O-])O[N+](=O)[O-] (stereo not given)	3.25
O=[N+]([O-])OCCCCCCCCCCO[N+](=O)[O-]	5.56
O=[N+]([O-])OC1CCCCCC1O[N+](=O)[O-] (stereo not given)	3.41
O=[N+]([O-])OCCCCCCO[N+](=O)[O-]	3.19
O=[N+]([O-])OCCCCCCCO[N+](=O)[O-]	3.81
O=[N+]([O-])OCCCCO[N+](=O)[O-]	2.17
